The target in the assay is Acetylcholinesterase (Homo sapiens, UniProt P22303). In words: Inhibition of AChE by modified Ellman's spectrophotometric method.

By UniProt entry, the sequences of proteins in these tests, tags left out. Residues count along the entry.
UniProt P22303, 32-614 limits assumed: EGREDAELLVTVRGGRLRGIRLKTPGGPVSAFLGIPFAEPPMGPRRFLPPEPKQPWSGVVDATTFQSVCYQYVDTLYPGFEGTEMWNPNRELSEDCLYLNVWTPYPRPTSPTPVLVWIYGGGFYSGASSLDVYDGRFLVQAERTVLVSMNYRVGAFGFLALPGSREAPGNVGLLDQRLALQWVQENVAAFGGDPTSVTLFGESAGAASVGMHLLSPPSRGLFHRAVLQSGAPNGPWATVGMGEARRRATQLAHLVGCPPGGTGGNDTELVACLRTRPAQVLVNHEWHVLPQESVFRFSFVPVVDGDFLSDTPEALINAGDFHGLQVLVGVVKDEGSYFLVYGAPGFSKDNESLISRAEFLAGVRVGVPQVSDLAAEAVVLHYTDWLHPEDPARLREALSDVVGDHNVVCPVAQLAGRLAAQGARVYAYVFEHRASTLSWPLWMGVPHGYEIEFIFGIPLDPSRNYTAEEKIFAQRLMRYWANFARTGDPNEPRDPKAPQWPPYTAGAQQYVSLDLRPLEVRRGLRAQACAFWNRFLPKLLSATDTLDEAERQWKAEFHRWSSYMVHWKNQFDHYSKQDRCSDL

Broadly, the IC50 is the concentration needed to halve the response being measured. A low value points to inhibition by little substance.

With `CO[P@]1(=O)OC[C@H]2COC(=O)C2=C(C)O1`, the IC50 was 800 pM.

The values above are taken from BindingDB's records for 20189400.
